These results are taken from ChEMBL document CHEMBL5550109, “Synergistic therapeutics: Co-targeting histone deacetylases and ribonucleotide reductase for enhanced cancer treatment” (Eur J Med Chem, 2024).

For one experiment, the target named is T1, Histone deacetylase 8 (Homo sapiens, UniProt Q9BY41).
T1 sequence (Q9BY41 whole entry): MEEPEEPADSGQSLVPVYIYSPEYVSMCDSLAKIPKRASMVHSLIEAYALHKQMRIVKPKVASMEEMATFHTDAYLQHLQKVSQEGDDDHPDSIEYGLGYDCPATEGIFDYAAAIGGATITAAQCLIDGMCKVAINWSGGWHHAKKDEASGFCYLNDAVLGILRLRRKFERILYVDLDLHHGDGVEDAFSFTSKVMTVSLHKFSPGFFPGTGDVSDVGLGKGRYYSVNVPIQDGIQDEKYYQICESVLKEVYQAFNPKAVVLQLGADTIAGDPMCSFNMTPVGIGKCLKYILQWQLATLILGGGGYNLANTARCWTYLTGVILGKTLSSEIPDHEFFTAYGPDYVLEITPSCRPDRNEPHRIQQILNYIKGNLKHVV
In words: Inhibition of HDAC8 (unknown origin).

Experiment [1] deals with T2, Polyamine deacetylase HDAC10 (Homo sapiens, UniProt Q969S8).
T2 sequence (Q969S8 whole entry): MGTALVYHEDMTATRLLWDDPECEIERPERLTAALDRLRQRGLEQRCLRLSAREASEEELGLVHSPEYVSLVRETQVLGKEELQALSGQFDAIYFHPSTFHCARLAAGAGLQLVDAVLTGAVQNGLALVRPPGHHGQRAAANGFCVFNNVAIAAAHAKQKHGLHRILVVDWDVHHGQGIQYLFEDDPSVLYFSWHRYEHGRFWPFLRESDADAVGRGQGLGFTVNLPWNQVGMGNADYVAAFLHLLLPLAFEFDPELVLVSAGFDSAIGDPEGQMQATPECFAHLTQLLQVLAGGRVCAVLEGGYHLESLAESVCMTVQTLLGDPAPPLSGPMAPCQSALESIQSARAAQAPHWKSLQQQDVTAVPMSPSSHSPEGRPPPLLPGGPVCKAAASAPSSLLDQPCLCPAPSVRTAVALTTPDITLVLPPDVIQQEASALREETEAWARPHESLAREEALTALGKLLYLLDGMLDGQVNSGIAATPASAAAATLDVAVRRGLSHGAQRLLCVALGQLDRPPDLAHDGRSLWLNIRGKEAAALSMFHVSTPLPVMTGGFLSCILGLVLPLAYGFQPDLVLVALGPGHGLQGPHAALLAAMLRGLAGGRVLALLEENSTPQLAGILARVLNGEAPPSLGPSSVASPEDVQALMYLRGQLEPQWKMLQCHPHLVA
In words: Inhibition of HDAC10 (unknown origin).

One may read the IC50 as the point on the concentration scale where inhibition reaches its midpoint. With `O=C(CCCCCCC(=O)Nc1ccccc1)NO` [VORINOSTAT], the figures for the IC50 (on Histone deacetylase 8; in experiment [1]) were 0.022 µM and 0.031 µM, respectively.
